# Values quoted from earlier work as cited in publication PMC11659931.
# Target: IgE (Homo sapiens) (UniProt P01854)
substance,measurement,value
omalizumab Fab,Kd,15 nM
